This note sets out measurements from patent publication US9409952B2, “Peptide-compound cyclization method” (Chugai Seiyaku Kabushiki Kaisha, priority 2011, dated 2016).

The nature of the data set: Metabolic stability in human hepatic microsome. It counts as in vitro ADME. The following applies: microsomes, pH 7.4, NADPH(+), read-out: CL NADPH(+).

Each structure is given as a SMILES string.

For the compound `CC(C)C[C@H]1C(=O)NCC(=O)N[C@H](C(=O)N2CCCCC2)CC(=O)NC(C)(C)C(=O)N[C@@H]([C@@H](C)O)C(=O)N(C)[C@@H](C)C(=O)N(C)[C@@H](Cc2ccccc2)C(=O)N(C)[C@@H](Cc2ccccc2)C(=O)N[C@@H](COC(C)(C)C)C(=O)N1C` [DP-562], the microsomal CLint at 1 uM was determined as 91 µL/min/mg.
